{"source": "paper PMC12656327", "about": "(Pharmaceutics, 2025)", "key": {"[1]": {"system": "MRC-5 (human embryonic lung fibroblast) cells", "experiment": "MTT cytotoxicity, MRC-5 cells, 72 h", "assay_type": "cell-based", "details": "read-out: IC50 MRC-5, 72 h exposure"}, "AB1 cells [2]": {"system": "AB1 cells", "experiment": "NO release in vitro in AB1 cells (Griess reagent)", "assay_type": "cell-based, mouse", "details": "25 μM, 24 h, relative to untreated cells"}, "AB1 cells [3]": {"system": "AB1 cells", "experiment": "ROS detection, CM-H2DCFDA, live-cell confocal microscopy", "details": "100 μM, 2 h"}, "[4]": {"system": "AB1 (mouse malignant mesothelioma) cells", "experiment": "MTT cytotoxicity, AB1 cells, 72 h", "details": "read-out: IC50 AB1, 72 h exposure"}, "[5]": {"system": "JU77 (human malignant mesothelioma) cells", "experiment": "MTT cytotoxicity, JU77 cells, 72 h", "details": "read-out: IC50 JU77, 72 h exposure"}, "[6]": {"experiment": "NO release, Griess assay (phosphate buffer pH 7.4 with L-cysteine)", "assay_type": "physicochemical", "details": "for NO Released (%) 1 h: 1 h incubation, expressed as % NO2− (μmol/μmol), Griess assay, physiological conditions, furoxan 100 µM; for NO Released (%) 24 h: 24 h incubation; for NO Released (%) 24 h / NO Released (%) 48 h: % NO2− (μmol/μmol); for NO Released (%) 48 h: 48 h incubation; for total amount of released NO: with longer incubation periods"}, "AB1 and JU77 cell lines": {"system": "AB1 and JU77 cell lines", "experiment": "Cytotoxicity in both MPM cell lines (AB1 and JU77)", "details": "read-out: IC50 (cytotoxicity) in both MPM cell lines; AB1 and JU77, 72 h, range over cell lines/compounds"}, "[7]": {"system": "A549, HCT116, HeLa, MCF7, and RD cell lines", "details": "cited from earlier work"}, "HEK293 cells": {"system": "HEK293 cells", "details": "read-out: IC50 HEK293; 72 h; cited from earlier work"}, "[8]": {"system": "A549 non-small-cell lung cancer line", "details": "read-out: IC50 A549; previously reported; cited from earlier work"}}}
{"smiles": "[O-][n+]1onc(-c2noc(-c3ccco3)n2)c1-c1noc(-c2ccco2)n1", "values": [{"measurement": "IC50", "setting": "[1]", "result": 45.4, "unit": "µM"}, {"measurement": "intracellular NO release (in words)", "setting": "AB1 cells [2]", "result": "high"}, {"measurement": "ROS generation (CM-H2DCFDA fluorescence, in words)", "setting": "AB1 cells [3]", "result": "pronounced increase in fluorescence"}, {"measurement": "IC50", "setting": "[4]", "result": 14.2, "unit": "µM"}, {"measurement": "IC50", "setting": "[5]", "result": 5, "unit": "µM"}, {"measurement": "NO Released (%) 1 h", "setting": "[6]", "result": "52 ± 3", "unit": "%"}, {"measurement": "NO Released (%) 24 h", "setting": "[6]", "result": "70 ± 5", "unit": "%"}, {"measurement": "NO Released (%) 48 h", "setting": "[6]", "result": "73 ± 8", "unit": "%"}]}
{"smiles": "[O-][n+]1onc(-c2ncon2)c1-c1ncon1", "values": [{"measurement": "IC50", "setting": "[1]", "result": 16.4, "unit": "µM"}, {"measurement": "IC50", "setting": "AB1 and JU77 cell lines", "result": "8.6 to 11.7", "unit": "µM"}, {"measurement": "cytotoxicity (in words)", "setting": "[7]; earlier work", "result": "high cytotoxicity"}, {"measurement": "IC50", "setting": "[7]; range over A549, HCT116, HeLa, MCF7, RD, 72 h", "result": "2.37 to 8.75", "unit": "µM"}, {"measurement": "IC50", "setting": "[4]", "result": 11.7, "unit": "µM"}, {"measurement": "IC50", "setting": "[5]", "result": 8.6, "unit": "µM"}, {"measurement": "IC50", "setting": "HEK293 cells", "result": 20.4, "unit": "µM"}, {"measurement": "NO Released (%) 1 h", "setting": "[6]", "result": "73 ± 6", "unit": "%"}, {"measurement": "NO Released (%) 24 h", "setting": "[6]", "result": "131 ± 1", "unit": "%"}, {"measurement": "NO Released (%) 48 h", "setting": "[6]", "result": "144 ± 1", "unit": "%"}, {"measurement": "total amount of released NO", "setting": "[6]", "result": "exceeded 100%"}, {"measurement": "IC50", "setting": "[8]", "result": 8.8, "unit": "µM"}]}
{"smiles": "NC(=NO)c1no[n+]([O-])c1C(N)=NO", "values": [{"measurement": "NO Released (%) 1 h", "setting": "[6]", "result": "75 ± 9", "unit": "%"}, {"measurement": "NO Released (%) 24 h", "setting": "[6]", "result": "81 ± 5", "unit": "%"}, {"measurement": "NO Released (%) 48 h", "setting": "[6]", "result": "82 ± 7", "unit": "%"}]}
{"smiles": "COCc1nc(-c2no[n+]([O-])c2-c2noc(COC)n2)no1", "values": [{"measurement": "IC50", "setting": "[1]", "result": 52.6, "unit": "µM"}, {"measurement": "IC50", "setting": "[4]", "result": 15.6, "unit": "µM"}, {"measurement": "IC50", "setting": "[5]", "result": 19.5, "unit": "µM"}, {"measurement": "NO Released (%) 1 h", "setting": "[6]", "result": "75 ± 7", "unit": "%"}, {"measurement": "NO Released (%) 24 h", "setting": "[6]", "result": "112± 1", "unit": "%"}, {"measurement": "NO Released (%) 48 h", "setting": "[6]", "result": "125 ± 1", "unit": "%"}, {"measurement": "NO-donor ranking (in words)", "setting": "[6]; among all tested compounds", "result": "most effective NO donors"}, {"measurement": "total amount of released NO", "setting": "[6]", "result": "exceeded 100%"}]}
